Measured values: BindingDB's records for doi:10.1146/annurev.pharmtox.37.1.205 (Emory University, 1997)

Amino acid sequences for entries named in this document (tags omitted). A change or cut given only in a name is not applied to a line headed by its entry.
UniProt Q13255: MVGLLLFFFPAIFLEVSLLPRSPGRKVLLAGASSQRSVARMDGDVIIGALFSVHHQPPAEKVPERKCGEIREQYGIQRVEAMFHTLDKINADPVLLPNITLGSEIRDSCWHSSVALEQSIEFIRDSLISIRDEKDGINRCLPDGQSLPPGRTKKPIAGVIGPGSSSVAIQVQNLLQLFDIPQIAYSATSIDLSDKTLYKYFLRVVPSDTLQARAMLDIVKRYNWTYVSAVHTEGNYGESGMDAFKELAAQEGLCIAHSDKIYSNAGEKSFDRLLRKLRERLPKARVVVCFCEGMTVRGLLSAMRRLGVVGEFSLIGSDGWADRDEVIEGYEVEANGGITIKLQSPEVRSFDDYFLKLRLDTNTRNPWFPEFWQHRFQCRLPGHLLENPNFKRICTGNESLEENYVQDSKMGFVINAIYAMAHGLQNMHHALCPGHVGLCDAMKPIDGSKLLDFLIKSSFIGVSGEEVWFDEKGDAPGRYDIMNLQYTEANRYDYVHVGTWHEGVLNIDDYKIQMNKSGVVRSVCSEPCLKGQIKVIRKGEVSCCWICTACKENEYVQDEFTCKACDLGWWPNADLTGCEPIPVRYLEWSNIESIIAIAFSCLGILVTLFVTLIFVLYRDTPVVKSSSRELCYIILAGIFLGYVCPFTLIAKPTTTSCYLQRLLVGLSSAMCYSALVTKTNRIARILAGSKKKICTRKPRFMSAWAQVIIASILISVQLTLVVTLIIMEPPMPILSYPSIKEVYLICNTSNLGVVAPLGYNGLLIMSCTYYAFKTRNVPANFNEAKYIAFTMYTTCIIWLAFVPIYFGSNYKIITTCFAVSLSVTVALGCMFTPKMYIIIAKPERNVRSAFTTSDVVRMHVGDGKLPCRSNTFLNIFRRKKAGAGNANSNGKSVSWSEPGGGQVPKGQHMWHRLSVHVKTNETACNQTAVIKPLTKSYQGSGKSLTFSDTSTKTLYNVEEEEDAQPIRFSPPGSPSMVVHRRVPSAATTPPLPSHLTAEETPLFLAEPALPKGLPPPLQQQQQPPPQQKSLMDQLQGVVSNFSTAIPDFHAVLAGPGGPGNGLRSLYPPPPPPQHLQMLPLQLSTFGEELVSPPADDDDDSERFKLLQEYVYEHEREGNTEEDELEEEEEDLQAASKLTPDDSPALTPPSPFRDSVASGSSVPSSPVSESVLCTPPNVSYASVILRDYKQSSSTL

Biological target: Metabotropic glutamate receptor 1 (Homo sapiens, UniProt Q13255)

Q: `N[C@@H](Cn1oc(=O)[nH]c1=O)C(=O)O` [2-amino-3-(3,5-dioxo[1,2,4]oxadiazolidin-2-yl)propionic acid] was tested. Which pKi did it give?
A: 6.70

pKi: −log10 of the molar value.
